In US11872282B2 (priority 2015, dated 2024):

Tested on: recurrent partially platinum sensitive or resistant epithelial ovarian, primary peritoneal or fallopian tube cancers
Assay: Phase 3, randomized, double-blind trial of weekly paclitaxel plus AMG 386 (2XCon4(C)) or placebo (NCT01204749)
Conditions: in vivo

SMILES: CC(=O)O[C@H]1C(=O)[C@@]2(C)[C@H]([C@H](OC(=O)c3ccccc3)[C@]3(O)C[C@H](OC(=O)[C@H](O)[C@@H](NC(=O)c4ccccc4)c4ccccc4)C(C)=C1C3(C)C)[C@]1(OC(C)=O)CO[C@@H]1C[C@@H]2O [paclitaxel alone, paclitaxel]
- time to second subsequent therapy (TSST): 11.7 months
